This is an account of results in patent publication US20220347309A1, “PYRROLOBENZODIAZEPINE RESISTANCE” (ADC THERAPEUTICS SA, priority 2018, published 2022).

The subject of experiment [1] is NCI-N87 ADCr cells (ADCT-502 acquired resistant). Briefly: MTS in vitro cytotoxicity, 144 h continuous exposure. In kind it is cell-based, human. As to conditions: mean. The source says:
(§1) The growth inhibition curves for the wildtype and ADCT-502 acquired resistant cells are shown in FIG. 3, and for SG3199 resistant cells in FIG. 4.

The test system of experiment [2] is NCI-N87 PBDr cells (SG3199 acquired resistant). The description is as above. In kind it is cell-based, human. As to conditions: mean.
Excerpt: as §1

As to Trastuzumab-SG3560: C2-linked PBD-ADC, the “IC50 ng/mL” value is recorded as 95 (95) ng/mL in experiment [1] and 54 (54) ng/mL in experiment [2].
